The chains behind the UniProt entries cited, without tags or fusion partners.
UniProt Q9Y6K9, whole entry: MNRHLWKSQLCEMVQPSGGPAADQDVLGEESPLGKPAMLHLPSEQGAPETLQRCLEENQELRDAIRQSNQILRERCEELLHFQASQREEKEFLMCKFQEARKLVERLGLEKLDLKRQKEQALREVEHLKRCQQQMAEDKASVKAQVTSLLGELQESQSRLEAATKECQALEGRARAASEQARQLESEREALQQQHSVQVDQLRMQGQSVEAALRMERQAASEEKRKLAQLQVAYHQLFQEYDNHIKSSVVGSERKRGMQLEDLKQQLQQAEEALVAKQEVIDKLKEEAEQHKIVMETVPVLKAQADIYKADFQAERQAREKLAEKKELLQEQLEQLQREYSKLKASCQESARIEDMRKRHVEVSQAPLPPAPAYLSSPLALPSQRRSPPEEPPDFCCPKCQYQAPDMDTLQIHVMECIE
UniProt O14920, whole entry: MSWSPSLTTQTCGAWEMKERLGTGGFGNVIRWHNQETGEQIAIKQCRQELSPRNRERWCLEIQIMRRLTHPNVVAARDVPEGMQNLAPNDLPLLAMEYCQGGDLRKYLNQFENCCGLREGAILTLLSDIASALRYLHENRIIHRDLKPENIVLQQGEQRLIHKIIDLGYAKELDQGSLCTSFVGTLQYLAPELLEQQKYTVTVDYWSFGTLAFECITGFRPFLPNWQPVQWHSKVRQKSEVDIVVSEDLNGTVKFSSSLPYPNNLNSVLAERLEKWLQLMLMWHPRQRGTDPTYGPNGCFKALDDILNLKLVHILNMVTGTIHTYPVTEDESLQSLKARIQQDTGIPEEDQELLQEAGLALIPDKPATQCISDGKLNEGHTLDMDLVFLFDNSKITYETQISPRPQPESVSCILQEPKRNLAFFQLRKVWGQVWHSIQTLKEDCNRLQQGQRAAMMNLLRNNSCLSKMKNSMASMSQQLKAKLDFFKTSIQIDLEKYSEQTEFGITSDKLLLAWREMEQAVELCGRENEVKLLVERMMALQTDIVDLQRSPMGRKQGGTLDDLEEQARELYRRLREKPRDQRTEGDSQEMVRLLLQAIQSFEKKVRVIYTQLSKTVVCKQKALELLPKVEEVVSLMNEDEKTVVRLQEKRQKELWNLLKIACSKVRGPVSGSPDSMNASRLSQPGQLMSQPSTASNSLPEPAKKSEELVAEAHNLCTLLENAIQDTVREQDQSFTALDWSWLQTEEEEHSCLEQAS
UniProt O15111, whole entry: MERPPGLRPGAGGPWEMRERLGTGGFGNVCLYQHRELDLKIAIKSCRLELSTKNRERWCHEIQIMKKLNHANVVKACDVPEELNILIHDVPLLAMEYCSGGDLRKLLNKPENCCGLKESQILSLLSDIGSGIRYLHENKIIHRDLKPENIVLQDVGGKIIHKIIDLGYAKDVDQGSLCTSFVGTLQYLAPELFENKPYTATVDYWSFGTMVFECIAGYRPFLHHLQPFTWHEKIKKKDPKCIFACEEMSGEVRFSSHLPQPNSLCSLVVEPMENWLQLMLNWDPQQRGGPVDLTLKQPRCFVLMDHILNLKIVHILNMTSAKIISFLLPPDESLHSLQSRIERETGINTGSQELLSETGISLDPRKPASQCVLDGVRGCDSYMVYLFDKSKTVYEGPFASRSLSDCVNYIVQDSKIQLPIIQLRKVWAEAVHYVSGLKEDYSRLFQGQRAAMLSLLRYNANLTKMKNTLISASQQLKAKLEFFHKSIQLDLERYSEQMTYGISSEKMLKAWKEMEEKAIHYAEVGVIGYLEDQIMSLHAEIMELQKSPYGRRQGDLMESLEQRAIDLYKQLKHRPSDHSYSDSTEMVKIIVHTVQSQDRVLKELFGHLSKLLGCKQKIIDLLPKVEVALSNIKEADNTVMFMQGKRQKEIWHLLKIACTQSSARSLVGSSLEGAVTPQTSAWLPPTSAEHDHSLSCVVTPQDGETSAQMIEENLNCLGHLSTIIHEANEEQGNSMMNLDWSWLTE

In patent US20060194819A1, “Activation specific inhibitors of nf-kb and method of treating inflammatory processes in cardio-vascular diseases” (PROCORDE GMBH, priority 2003, published 2006):

Key:
NEMO = NEMO (Homo sapiens, UniProt Q9Y6K9); assay: Degradation of the IKK-complex in HeLa cells, Western blot with anti-NEMO-antibody; conditions: for level of NEMO protein: various concentrations, TNF alpha 20 ng/ml
Protocol: 3×10^6 HeLa cells were incubated with different drugs at increasing concentrations for 1 h, washed twice with PBS and stimulated with 20 ng/ml TNF alpha (Roche). After 7 min the cells were washed twice with ice cold PBS followed by scraping and transferring into a 1.5 ml microcentrifuge tube. (After centrifugation by 2000 rpm for 2 min by 4° C. the PBS supernatant was removed and 200 μl Lyse-buffer (10 mM Hepes, pH 7.9, 0.1% NP40, 300 mM Sucrose, 10 mM KCl, 15 mM MgCl2, 1 mM DTT, 0.5 mM PMSF and antipain, aprotinin, leupeptin each 0.75 μg/ml (Sigma) was added to the pellet. The resuspented pellet was incubated on ice for 5 min and centrifuged at 13000 g for 30s.)
Cytosolic extracts were isolated as described earlier.
30 μL cytosolic extract, approximately extract from 4×10^5 cells, was loaded to a 4-20% polyacrylamid gels (BioRad). After electrophoresis the proteins were transferred to a nitrocellulose membrane using the wet blotting technique. First the membrane was blocked with Roti-Block (Roth) and afterwards incubated with polyclonal antibodies against IKK alpha/beta or NEMO (both Santa Cruz Biotechnology, used at 1:200 dilution). This incubation was followed by the appropriate horseradish peroxidase-conjugated secondary antibody (Dianova) at 1:10000 dilution. Antibody binding was visualized on x-ray film using the Western blot Chemiluminescent Reagent Detection Kit (Santa Cruz).

[1] = target: binding of IKK alpha/beta to NEMO (Homo sapiens, UniProt O14920+O15111+Q9Y6K9); assay: Co-precipitation of IKK alpha/beta with anti-NEMO-antibody from compound treated, TNF alpha stimulated HeLa cells; conditions: for IKK-alpha/IKK-beta in the co-precipitated complex with NEMO, compared to control without compound: HeLa cells
Protocol: FIG. 3b. Disruption of the IKK alpha/beta complex to NEMO binding by compound 73. HeLa cells were treated with 10 μM and 100 μM of compound 73, followed by TNF alpha stimulation (20 ng/ml). IKK-complex was co-precipitated from cytosolic extract with an anti-NEMO-antibody (Santa Cruz) and Protein A-Sepharose. The precipitate was analysed for the IKK alpha/beta protein in Western-Blot with a specific anti-IKK alpha/beta-antibody. In the control with unspecific rabbit-IgG antibody for immnoprecipitation, no co-precipitation with IKK alpha/beta was detectable.
To specifically examine the disruption of the IKK complex we analysed protein expression of IKK-alpha/beta after immunoprecipitation with anti-NEMO-antibody (Santa Cruz Biotechnology) (FIG. 3b.). A clear correlation in IKKalpha/beta amount before and after immunoprecipitation was found. With unchanged detection of NEMO protein, the level of IKKalpha/beta protein was reduced in a dose dependent manner by compound 73. Compared to the control without compound 73 IKK-alpha/IKK-beta was reduced to 27% at 10 μM and 91% at 100 μM in the co-precipitated complex with NEMO.

HeLa cells [2] = assay: Cell permeability: compound in the cytosolic extract of HeLa cells, signal at 450 nm in Elisa reader; conditions: 100 μM, 1 h
Protocol: 3×10^6 HeLa cells were incubated with compound 73 at 100 μM for 1 h. After washing with PBS three times 120 μl hypotonic buffer (10 mM NaCl, 10 mM Hepes ph 7.5) was added to the cell pellet and frozen in liquid N2 for cell lysis. After centrifugation at 16000 g for 5 min the supernatant was measured by 450 nm in Elisa and amount of compound 73 was compared with a standard concentration of this substances.

HeLa cells [3] = assay: Cell viability, WST-1 assay
Protocol: […] The medium was changed and 10 μL of the WST-1 reagent was added to each well. After 2 h the absorption of 450 nm was measured in an Elisa-reader.

## CCOC(=O)C1=C(C)N=c2sc(=Cc3ccc(-c4cccc(C(=O)O)c4)o3)c(=O)n2C1c1cc(OC)c(OC)cc1Br (stereo not drawn)
NEMO; 3.3 μM
  NEMO protein amount: Decreased amounts
NEMO; 20 μM
  NEMO protein degradation: significant degradation
NEMO; 33 μM and 100 μM
  NEMO protein degradation: nearly completely abolition
NEMO; listed as COM 73
  level of NEMO protein: concentration-dependently degraded
NEMO; listed as compound 73
  level of NEMO protein: dose dependently reduced
[1]; 10 μM and 100 μM
  binding of IKK alpha/beta to NEMO in activated HeLa cells: dose-dependently inhibited
[1]; 10 μM
  IKK-alpha/IKK-beta in the co-precipitated complex with NEMO, compared to control without compound: 27%
[1]; 100 μM
  IKK-alpha/IKK-beta in the co-precipitated complex with NEMO, compared to control without compound: 91%
HeLa cells [2]
  cell permeability: excellent cell permeability
  concentration found inside the cells: approximately 90 μM
HeLa cells [3]; HeLa cells, 30 μM, 3 h
  decrease in metabolic activity compared with untreated control (WST-1): no significant decrease
HeLa cells [3]; concentrations and conditions of the described assays
  toxicity for HeLa cells (WST-1): not found to be toxic
